Assay results published in ChEMBL document CHEMBL1134413, “Effect of N-alkyl and N-alkenyl substituents in noroxymorphindole, 17-substituted-6,7-dehydro-4,5alpha-epoxy-3,14-dihydroxy-6,7:2',3'-indolomorphinans, on opioid receptor affinity, selectivity, and efficacy” (J Med Chem, 2001).

The chains behind the UniProt entries cited, without tags or fusion partners.
UniProt P33535, whole entry: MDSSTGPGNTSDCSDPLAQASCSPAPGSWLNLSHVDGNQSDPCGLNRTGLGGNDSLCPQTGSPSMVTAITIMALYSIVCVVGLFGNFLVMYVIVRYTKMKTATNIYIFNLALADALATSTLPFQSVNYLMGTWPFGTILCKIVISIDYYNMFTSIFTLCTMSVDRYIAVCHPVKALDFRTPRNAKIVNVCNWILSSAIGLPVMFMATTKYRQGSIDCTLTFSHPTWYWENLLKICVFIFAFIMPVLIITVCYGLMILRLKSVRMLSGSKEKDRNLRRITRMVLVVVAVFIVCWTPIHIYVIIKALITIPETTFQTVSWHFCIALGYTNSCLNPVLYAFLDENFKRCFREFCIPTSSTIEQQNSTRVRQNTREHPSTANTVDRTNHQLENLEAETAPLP

Molecular target: Mu-type opioid receptor (Rattus norvegicus, UniProt P33535)
Assay: Antagonist activity of compound on agonist stimulated [35S]GTP-gamma-S binding on mu-opioid receptor
Type: functional

`Cl.Oc1ccc2c3c1O[C@H]1c4[nH]c5ccccc5c4C[C@@]4(O)[C@@H](C2)N(CC2CC2)CC[C@]314` [NALTRINDOLE HYDROCHLORIDE] showed a Ki of 4.3 nM.
